The entries are a selection whose mix differs from that of the whole data set. Calls of active or inactive are those of the source.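 The calls were made as follows: active = inhibition above the mean of compound-free control plate wells plus 3 SD (cut at about 14% in these data); inactive = the rest.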
These compounds were tested against Collagenase 3 (Homo sapiens) (UniProt P45452) (assay: inhibition of MMP13 collagenase activity – biochemical, FRET peptide cleavage, primary screen (AID 570;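 also: 0% = DMSO wells and 100% = wells with reference MMP-13 inhibitor after basal subtraction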)). Conditions: MMP-13 fTHP FRET cleavage, Mca fluorescence; at 4 µM; active compounds read high.

Compound	inhibition
Cc1nc2ccc3ccccc3c2s1.O=[N+]([O-])c1cc([N+](=O)[O-])c(O)c([N+](=O)[O-])c1	inactive: 3.2%
Cc1ccc(C)c(NP(C)(=O)Oc2ccccc2)c1 (stereo not drawn)	inactive: 1.5%
COc1ccccc1OP(C)(=O)Nc1ccc(C)cc1 (stereo not drawn)	inactive: 5.1%
Cc1ccc(NP(C)(=O)Oc2ccccc2)c(C)c1 (stereo not drawn)	inactive: 3.3%
CP(=O)(NC(=O)Nc1ccccc1)Oc1ccccc1 (stereo not drawn)	inactive: -0.6%
CCOP(C)(=S)SCC(=O)NC(C)C(=O)O (stereo not drawn)	inactive: -4.8%
CP(=S)(Nn1cnnc1)Oc1ccccc1 (stereo not drawn)	inactive: 1.3%
COc1ccccc1OP(C)(=O)Nc1c(C)n(C)n(-c2ccccc2)c1=O (stereo not drawn)	inactive: -0.7%
CP(=O)(Oc1ccccc1)N1CCOC1=O (stereo not drawn)	inactive: -2.8%
CCN(CC)CC(O)COC(=O)C(O)(c1ccccc1)C1CCCCC1 (stereo not drawn)	inactive: 1.9%
CP(=O)(Nc1ccccn1)Oc1ccccc1 (stereo not drawn)	inactive: 2%
COc1ccccc1OP(C)(=O)Nc1ccc(C)c(C)c1 (stereo not drawn)	inactive: -5%
Cc1nc2ccc3ccccc3c2o1.O=[N+]([O-])c1cc([N+](=O)[O-])c(O)c([N+](=O)[O-])c1	inactive: 6.6%
CP(=O)(Nc1ccccc1F)Oc1ccccc1 (stereo not drawn)	inactive: -4.9%
CCOP(C)(=S)SCC(=O)NC(C)(CC)C(=O)O (stereo not drawn)	inactive: 2.2%
Cc1ccccc1NP(C)(=O)Nc1ccccc1C	inactive: 6.6%
CP(=O)(Nc1ccc2c(c1)OCCO2)Oc1ccccc1 (stereo not drawn)	inactive: 3.5%
CN(C)CCOC(=O)C(O)(c1ccccc1)C1CCCCC1 (stereo not drawn)	inactive: -4.5%
